Measured values: ChEMBL document CHEMBL2321830 (J Med Chem, 2013)

Tests used:
[1] = target: T1, Aldo-keto reductase family 1 member C1 (Homo sapiens, UniProt Q04828); assay: Inhibition of human recombinant AKR1C1-mediated NADP+-dependent oxidation of S-(+)-1,2,3,4-tetrahydro-1-naphthol
T1 sequence (Q04828 whole entry): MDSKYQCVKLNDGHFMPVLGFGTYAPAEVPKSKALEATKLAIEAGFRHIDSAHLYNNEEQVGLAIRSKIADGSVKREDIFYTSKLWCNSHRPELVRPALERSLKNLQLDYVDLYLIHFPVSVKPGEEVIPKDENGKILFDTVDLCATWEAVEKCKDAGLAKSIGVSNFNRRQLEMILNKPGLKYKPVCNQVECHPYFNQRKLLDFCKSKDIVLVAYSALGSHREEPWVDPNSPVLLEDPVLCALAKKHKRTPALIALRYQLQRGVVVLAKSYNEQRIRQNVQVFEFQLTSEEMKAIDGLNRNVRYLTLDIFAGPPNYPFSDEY

[2] = target: T2, Aldo-keto reductase family 1 member C3 (Homo sapiens, UniProt P42330); assay: Inhibition of human recombinant AKR1C3-mediated NADP+-dependent oxidation of S-(+)-1,2,3,4-tetrahydro-1-naphthol
T2 sequence (P42330 whole entry): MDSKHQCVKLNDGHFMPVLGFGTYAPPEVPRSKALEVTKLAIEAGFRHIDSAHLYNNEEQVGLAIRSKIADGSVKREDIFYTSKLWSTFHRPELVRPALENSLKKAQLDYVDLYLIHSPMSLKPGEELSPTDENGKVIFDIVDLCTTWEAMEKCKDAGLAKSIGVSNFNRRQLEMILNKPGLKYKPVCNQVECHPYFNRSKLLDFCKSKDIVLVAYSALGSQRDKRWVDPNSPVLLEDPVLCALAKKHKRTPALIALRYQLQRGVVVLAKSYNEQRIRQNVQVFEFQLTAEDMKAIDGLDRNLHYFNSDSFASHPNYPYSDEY

IC50 [2] | Structure (SMILES) | IC50 [1]
 | COc1ccc2c(c1)c(CCC(=O)O)c(C)n2C(=O)c1ccc(Cl)cc1 | > 100 µM
1.44 µM | COc1ccc2c(c1)c(C)c(CCC(=O)NS(=O)(=O)C(F)(F)F)n2C(=O)c1ccc(Cl)cc1 | 
